Measured values published in ChEMBL document CHEMBL4130525, “gem-Dinitroalkyl Benzenes: A Novel Class of IOP-Lowering Agents for the Treatment of Ocular Hypertension” (ACS Med Chem Lett, 2017).
Calls of active or inactive are those of the source. No cut-off for these calls is given here.

How the values were obtained:
[1] = Induction of NO release assessed as nitrite formation at 0.1 mM in phosphate buffer saline at pH 7.4 in presence of 5 mM of L-cysteine measured after 1 hr by Griess assay; assay type: functional
[2] = Induction of NO release assessed as nitrite formation at 0.1 mM in phosphate buffer saline at pH 7.4 in presence of 5 mM of L-cysteine measured after 6 hrs by Griess assay; assay type: functional
Oryctolagus cuniculus [3] = experiment: Antiglaucoma activity in hypertonic saline-induced New Zealand albino rabbit transient ocular hypertensive model assessed as IOP lowering efficacy at 1% dose administered topically immediately after hypertonic saline injection measured at 60 mins post dose; assay type: functional
Oryctolagus cuniculus [4] = experiment: Antiglaucoma activity in hypertonic saline-induced New Zealand albino rabbit transient ocular hypertensive model assessed as IOP lowering efficacy at 1% dose administered topically immediately after hypertonic saline injection measured at 120 mins post dose; assay type: functional
Oryctolagus cuniculus [5] = experiment: Antiglaucoma activity in hypertonic saline-induced New Zealand albino rabbit transient ocular hypertensive model assessed as IOP lowering efficacy at 1% dose administered topically immediately after hypertonic saline injection measured at 240 mins post dose; assay type: functional
Oryctolagus cuniculus [6] = experiment: Antiglaucoma activity in carbomer-induced New Zealand albino rabbit transient ocular hypertensive model assessed as reduction in IOP at 1% dose administered topically everyday for 5 days measured 1 hr post drug instillation; assay type: functional, organism-based
Oryctolagus cuniculus [7] = experiment: Antiglaucoma activity in carbomer-induced New Zealand albino rabbit transient ocular hypertensive model assessed as reduction in IOP at 1% dose administered topically measured after 24 hrs; assay type: functional, organism-based
Thoracic aorta = experiment: Vasodilatory activity in denuded Wistar rat thoracic aorta assessed as relaxation of L-phenylephrine-induced contractions of aortic strips at 100 uM relative to control

Compound: O=[N+]([O-])C(c1ccccc1)[N+](=O)[O-]
- Activity [1]: 3%
- Activity [2]: 30%
- Activity (Oryctolagus cuniculus [3]): -11.7 mmHg
- Activity (Oryctolagus cuniculus [4]): -2.3 mmHg
- Activity (Oryctolagus cuniculus [5]): Active
- Activity (Oryctolagus cuniculus [6]): Active
- Activity (Oryctolagus cuniculus [7]): Dose-dependent effect
- Activity (Thoracic aorta): -6.5 mmHg
